In this experiment the target is GST-p50 RhoGAP. Nature of the experiment: scintillation proximity assay (direct); GST-p50 RhoGAP on SPA beads; [3H]GTP·Cdc42 or [3H]GTP·Rac1 in solution; values used as fixed Kd in the competition fits. For orientation: SPA uses beads or plates that emit light when radiolabelled molecules are held near them.

The source of these data is article PMC3852207.

For orientation: Kd means the constant that tells how readily two partners part at equilibrium. Read a high Kd as a looser complex.

As for “Q61L Rac1·[3H]GTP (from UniProt P63000 1-192) (natural protein)”, the Kd is 86 nM.
